The entries are a selection whose mix differs from that of the whole data set. Measured potencies and affinities stand elsewhere. Activity calls are given as the source filed them. No rule for the calls is given here.
Experiment: viability loss in A549 cells – cell-based, plate reader, cherry-pick samples, cytotoxicity control, dose response (AID 687028);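 also: cells incubated with compound for three days before reading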
Settings: at 19.5 µM (top of the series)

SMILES	activity change, negative = toxicity
CCOC(=O)c1ccc(NP(C)(=O)Oc2ccc(Cl)cc2)cc1 (stereo unspecified)	inactive: -2.72%
